Measured values reported in article PMC4527783 (PLoS ONE, 2015).
*1 amine or outer side, *2 acyl side, *3 side chain or, on linkers, in order; H or OH if unused. Where a SMILES comes first, the peptide text is derived from it. [ ]: non-standard residue; d: D form. X1 = N[C@@H](Cc1ccccc1)CN(CC(=O)[*:2])[*:1]; Phe(4-F) = N[C@@H](Cc1ccc(F)cc1)C(=O)O; Aib = CC(C)(N)C(=O)O

Protein sequences, listed by entry. Tags and fused reporters are not part of them. Lines headed by an entry give the natural chain unless they say otherwise; changes in a name come on top.
UniProt P41146: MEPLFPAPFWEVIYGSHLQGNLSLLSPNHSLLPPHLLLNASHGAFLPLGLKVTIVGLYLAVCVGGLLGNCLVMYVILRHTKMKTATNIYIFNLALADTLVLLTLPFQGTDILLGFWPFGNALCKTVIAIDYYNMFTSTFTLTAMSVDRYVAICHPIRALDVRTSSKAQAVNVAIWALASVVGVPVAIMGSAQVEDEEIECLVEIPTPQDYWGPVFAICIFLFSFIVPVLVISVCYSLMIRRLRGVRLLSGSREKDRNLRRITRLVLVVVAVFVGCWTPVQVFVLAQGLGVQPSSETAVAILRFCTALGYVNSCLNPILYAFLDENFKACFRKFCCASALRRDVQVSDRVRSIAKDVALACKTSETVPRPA

What was measured:
[1] = target: T1, human NOP-RLuc/β-arrestin 2-RGFP (Homo sapiens, UniProt P41146)
[2] = target: T1, human NOP-RLuc/β-arrestin 2-RGFP; assay: BRET NOP/β-arrestin 2 interaction, antagonist potency vs N/OFQ, whole cells; conditions: for Kb: pKB (CL95%), β-arrestin 2
human NOP-RLuc/Gβ1-RGFP [3] = target: T2, human NOP-RLuc/Gβ1-RGFP (Homo sapiens, UniProt P41146); assay: BRET NOP/G-protein interaction, antagonist potency vs N/OFQ, cell membranes
[4] = target: T1, human NOP-RLuc/β-arrestin 2-RGFP; assay: cell-based
human NOP-RLuc/Gβ1-RGFP [5] = target: T2, human NOP-RLuc/Gβ1-RGFP
human NOP-RLuc/Gβ1-RGFP [6] = target: T2, human NOP-RLuc/Gβ1-RGFP; assay: Constitutive NOP/G-protein coupling (basal BRET ratio), cell membranes; assay type: biochemical; conditions: incubation time prolonged to 15 min
Procedure: In whole cells luminescence was recorded in 96-well sterile poly-D-lysine-coated white opaque microplates, while in membranes it was recorded in 96-well untreated white opaque microplates (PerkinElmer, Waltham, MA, USA). For the determination of NOP/β-arrestin 2 interactions, cells co-expressing NOP-Rluc and β-arrestin 2-RGFP were plated 24 h before the experiment (100,000 cells / well). The cells were prepared for the experiment substituting the medium with Dulbecco’s phosphate buffered saline (DPBS) with 0.5 mM MgCl2 and 0.9 mM CaCl2. For the determination of NOP/G-protein interaction, membranes (3 μg of protein) prepared from cells co-expressing NOP-Rluc and Gβ1-RGFP were added to wells in DPBS. Coelenterazine at a final concentration of 5 μM was always injected 10 minutes prior reading the cell plate. The receptor / G-protein interaction was measured in cell membranes to exclude the involvement of other cellular processes (i.e. arrestin recruitment, internalization). Next, different concentrations of ligands in 20 μL of PBS—BSA 0.01% (Bovine Serum Albumin, Sigma Chemical Co. (Poole, UK)) were added and incubated for an additional 5 min before reading luminescence. […]
The GPCR/G-protein interaction assessed via BRET in cell membranes is abolished by the addition of guanine nucleotides. […]

SMILES | Emax ± sem, β-arrestin 2 [1] | Emax, β-arrestin 2 (Table 3) [1] | pEC50 (CL95%), β-arrestin 2 [1] | also measured
C[C@H](NC(=O)CNC(=O)[C@@H](NC(=O)[C@H](Cc1ccccc1)NC(=O)CNC(=O)CNC[C@@H](N)Cc1ccccc1)[C@@H](C)O)C(=O)N[C@@H](CCCNC(=N)N)C(=O)N[C@@H](CCCCN)C(=O)N[C@@H](CO)C(=O)N[C@@H](C)C(=O)N[C@@H](CCCNC(=N)N)C(=O)N[C@@H](CCCCN)C(N)=O [[F/G]N/OFQ(1–13)-NH2, [Phe^1ψ(CH2-NH)Gly^2]N/OFQ(1–13)-NH2] (H-[X1]GFTGARKSARK-NH2) | inactive | inactive | inactive | concentration ratio (CR), β-arrestin 2 [1]: inactive
C[C@H](NC(=O)CNC(=O)[C@@H](NC(=O)[C@H](Cc1ccccc1)NC(=O)CNC(=O)CNC[C@@H](N)Cc1ccccc1)[C@@H](C)O)C(=O)N[C@@H](CCCN=C(N)N)C(=O)N[C@@H](CCCCN)C(=O)N[C@@H](CO)C(=O)N[C@@H](C)C(=O)N[C@@H](CCCN=C(N)N)C(=O)N[C@@H](CCCCN)C(N)=O [[F/G]N/OFQ(1–13)-NH2, [Phe^1ψ(CH2-NH)Gly^2]N/OFQ(1–13)-NH2] (H-[X1]GFTGARKSARK-NH2) |  |  |  | Kb [2]: 30.2 nM
C[C@H](NC(=O)[C@H](CO)NC(=O)[C@H](CCCCN)NC(=O)[C@H](CCCNC(=N)N)NC(=O)C(C)(C)NC(=O)CNC(=O)[C@@H](NC(=O)[C@H](Cc1ccc(F)cc1)NC(=O)CNC(=O)CNC[C@@H](N)Cc1ccccc1)[C@@H](C)O)C(=O)N[C@@H](CCCNC(=N)N)C(=O)N[C@@H](CCCCN)C(=O)N[C@@H](CCCNC(=N)N)C(=O)N[C@@H](CCCCN)C(=O)N[C@@H](CC(N)=O)C(=O)N[C@@H](CCC(N)=O)C(N)=O [UFP-113] (H-[X1]G[Phe(4-F)]TG[Aib]RKSARKRKNQ-NH2) | inactive | inactive | inactive | Kb [2]: 0.38 nM; concentration ratio (CR), β-arrestin 2 [1]: inactive
C[C@H](NC(=O)CNC(=O)[C@@H](NC(=O)[C@H](Cc1ccccc1)NC(=O)CNC(=O)CNC(=O)CNCc1ccccc1)[C@@H](C)O)C(=O)N[C@@H](CCCNC(=N)N)C(=O)N[C@@H](CCCCN)C(=O)N[C@@H](CO)C(=O)N[C@@H](C)C(=O)N[C@@H](CCCNC(=N)N)C(=O)N[C@@H](CCCCN)C(=O)N[C@@H](CCCNC(=N)N)C(=O)N[C@@H](CCCCN)C(=O)N[C@@H](CC(N)=O)C(=O)N[C@@H](CCC(N)=O)C(N)=O [UFP-101, [Nphe1,Arg14,Lys15]nociceptin-NH2] |  |  |  | Kb (human NOP-RLuc/Gβ1-RGFP [3]): 21.9 nM
C[C@H](NC(=O)[C@H](CO)NC(=O)[C@H](CCCCN)NC(=O)[C@H](CCCNC(=N)N)NC(=O)C(C)(C)NC(=O)CNC(=O)[C@@H](NC(=O)[C@H](Cc1ccc(F)cc1)NC(=O)CNC(=O)CNC(=O)[C@@H](N)Cc1ccccc1)[C@@H](C)O)C(=O)N[C@@H](CCCNC(=N)N)C(=O)N[C@@H](CCCCN)C(=O)N[C@@H](CCCNC(=N)N)C(=O)N[C@@H](CCCCN)C(=O)N[C@@H](CC(N)=O)C(=O)N[C@@H](CCC(N)=O)C(N)=O [UFP-112] |  |  |  | EC50 [4]: 4.27 nM
Cc1cccc2c1CC[C@H](CN1CCC(c3c(Cl)cccc3Cl)CC1)C[C@@H]2O [SB-612111, (-)-cis-1-methyl-7-[[4-(2,6-dichlorophenyl)piperidin-1-yl]methyl]-6,7,8,9-tetrahy dro-5H-benzocyclohepten-5-ol] | inactive | inactive | inactive | antagonism of N/OFQ, β-arrestin 2 (in words) [2]: expected competitive inhibition; Emax ± sem, G protein (human NOP-RLuc/Gβ1-RGFP [5]): inactive; Emax, G protein (Table 3) (human NOP-RLuc/Gβ1-RGFP [5]): inactive; pEC50 (CL95%), G protein (human NOP-RLuc/Gβ1-RGFP [5]): inactive; pEC50, G protein (Table 3) (human NOP-RLuc/Gβ1-RGFP [5]): inactive
Nc1nc2c(ncn2[C@@H]2O[C@H](COP(=O)(O)OP(=O)(O)O)[C@@H](O)[C@H]2O)c(=O)[nH]1 [GDP] |  |  |  | inhibition of basal BRET (human NOP-RLuc/Gβ1-RGFP [6]): 5%
CC[C@H](C)[C@H](NC(=O)[C@H](CCCNC(=N)N)NC(=O)[C@H](Cc1ccc(O)cc1)NC(=O)[C@H](Cc1ccc(O)cc1)NC(=O)[C@H](CCCNC(=N)N)NC(C)=O)C(=O)N[C@@H](CCCCN)C(N)=O [Ac-RYYRIK-NH2] | inactive | inactive | inactive | 
